As usually defined, the pKi is −log10 of the Ki, conventionally taken in molar units.

Chains of the proteins cited; added tags and fusions are not shown. Residues count along the entry.
UniProt P29317, 24-976 limits assumed: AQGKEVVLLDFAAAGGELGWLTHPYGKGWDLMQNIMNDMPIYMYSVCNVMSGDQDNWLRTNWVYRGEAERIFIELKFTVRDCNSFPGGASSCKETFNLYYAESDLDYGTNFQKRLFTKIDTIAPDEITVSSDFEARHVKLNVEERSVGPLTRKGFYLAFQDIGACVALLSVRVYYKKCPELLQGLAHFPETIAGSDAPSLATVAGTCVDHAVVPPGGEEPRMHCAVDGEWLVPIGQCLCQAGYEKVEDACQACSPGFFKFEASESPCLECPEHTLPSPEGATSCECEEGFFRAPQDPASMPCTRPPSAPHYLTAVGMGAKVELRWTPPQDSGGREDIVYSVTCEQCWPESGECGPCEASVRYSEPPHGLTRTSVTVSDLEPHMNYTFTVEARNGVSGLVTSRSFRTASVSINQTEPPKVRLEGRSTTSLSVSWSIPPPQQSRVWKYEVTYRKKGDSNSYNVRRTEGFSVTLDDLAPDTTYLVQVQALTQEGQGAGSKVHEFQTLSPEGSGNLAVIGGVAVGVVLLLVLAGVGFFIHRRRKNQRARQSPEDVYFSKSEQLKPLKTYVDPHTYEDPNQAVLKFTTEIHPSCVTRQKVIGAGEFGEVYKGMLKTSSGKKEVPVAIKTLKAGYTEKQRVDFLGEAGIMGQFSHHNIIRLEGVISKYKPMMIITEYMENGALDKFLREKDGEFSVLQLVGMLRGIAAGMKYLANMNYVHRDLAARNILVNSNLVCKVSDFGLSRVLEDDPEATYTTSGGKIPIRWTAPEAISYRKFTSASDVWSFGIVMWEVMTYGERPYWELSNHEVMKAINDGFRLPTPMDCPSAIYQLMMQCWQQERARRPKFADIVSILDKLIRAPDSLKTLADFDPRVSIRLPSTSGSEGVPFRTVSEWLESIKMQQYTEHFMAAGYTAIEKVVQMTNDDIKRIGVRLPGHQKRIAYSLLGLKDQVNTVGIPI

pKi: −log10 of the molar value.

These results are taken from patent US12509457B2, “Bicyclic nitrogen containing heterocycles as inhibitors of salt-induced kinase SIK2” (priority 2019, dated 2025).

The assay has as its target EPHA2 (Homo sapiens, UniProt P29317). In words: EPHA2 kinase assay, IMAP fluorescence polarization. It counts as biochemical. Particulars: read-out: EPHA2-AVERAGE Ki, 50 or 100 μM ATP. (In general: Polarisation of emitted light reports the rotation of a fluorescent probe.)
With `Cc1cccc(F)c1N1Cc2cnc(N)cc2N(C2CCNCC2)C1=O` [Example 1, 7-Amino-3-(2-fluoro-6-methyl-phenyl)-1-(4-piperidyl)-4H-pyrido[4,3-d]pyrimidin-2-one], the pKi was 6.73. For `Cc1cccc(F)c1N1Cc2cnc(N)cc2N(C2CCN(C)CC2)C1=O` [Example 3, 7-Amino-3-(2-fluoro-6-methyl-phenyl)-1-(1-methyl-4-piperidyl)-4H-pyrido[4,3-d]pyrimidin-2-one], the negative-log Ki (pKi) is 6.69. For `Cc1cccc(Cl)c1N1Cc2cnc(N)cc2N(C2CCNCC2)C1=O` [Example 6, 7-amino-3-(2-chloro-6-methyl-phenyl)-1-(4-piperidyl)-4H-pyrido[4,3-d]pyrimidin-2-one] the value was 7.23; for `Cc1cccc(Cl)c1N1Cc2cnc(N)cc2N(C2CCN(C)CC2)C1=O` [Example 7, 7-amino-3-(2-chloro-6-methyl-phenyl)-1-(1-methyl-4-piperidyl)-4H-pyrido[4,3-d]pyrimidin-2-one], 7.15. For `Cc1cccc(F)c1N1Cc2cnc(N)nc2N(C2CCNCC2)C1=O` [Example 11, 7-Amino-3-(2-fluoro-6-methyl-phenyl)-1-(4-piperidyl)-4H-pyrimido[4,5-d]pyrimidin-2-one] the value was 6.98.

Take `Cc1cccc(Cl)c1N1Cc2cnc(N)nc2N(C2CCNCC2)C1=O` [Example 15, 7-Amino-3-(2-chloro-6-methyl-phenyl)-1-(4-piperidyl)-4H-pyrimido[4,5-d]pyrimidin-2-one]: the pKi was 7.51. As for `Cc1cccc(F)c1N1Cc2cncnc2N(C2CCNCC2)C1=O` [Example 16, 3-(2-fluoro-6-methyl-phenyl)-1-(4-piperidyl)-4H-pyrimido[4,5-d]pyrimidin-2-one], the pKi was 5.32. With `Cc1cccc(Cl)c1N1Cc2cncnc2N(C2CCNCC2)C1=O` [Example 17, 3-(2-chloro-6-methyl-phenyl)-1-(4-piperidyl)-4H-pyrimido[4,5-d]pyrimidin-2-one] the figure was 6.10; with `Cc1cccc(F)c1N1Cc2cnccc2N(C2CCNCC2)C1=O` [Example 18, 3-(2-Fluoro-6-methyl-phenyl)-1-(4-piperidyl)-4H-pyrido[4,3-d]pyrimidin-2-one], 6.45. With `Cc1cccc(F)c1N1Cc2cnc(N)nc2N(C2CCN(C)CC2)C1=O` [Example 19, 7-Amino-3-(2-fluoro-6-methyl-phenyl)-1-(1-methyl-4-piperidyl)-4H-pyrimido[4,5-d]pyrimidin-2-one] the figure was 7.03; with `CCN1CCC(N2C(=O)N(c3c(C)cccc3F)Cc3cnc(N)nc32)CC1` [Example 20, 7-amino-1-(1-ethyl-4-piperidyl)-3-(2-fluoro-6-methyl-phenyl)-4H-pyrimido[4,5-d]pyrimidin-2-one], 6.82; with `Cc1cccc(Cl)c1N1Cc2cnc(N)nc2N(C2CCN(C)CC2)C1=O` [Example 22, 7-amino-3-(2-chloro-6-methyl-phenyl)-1-(1-methyl-4-piperidyl)-4H-pyrimido[4,5-d]pyrimidin-2-one], 7.24.

With `Cc1cccc(F)c1N1Cc2cnccc2N(C2CCN(C)CC2)C1=O` [Example 24, 3-(2-fluoro-6-methyl-phenyl)-1-(1-methyl-4-piperidyl)-4H-pyrido[4,3-d]pyrimidin-2-one], the pKi was 6.34. For `CCN1CCC(N2C(=O)N(c3c(C)cccc3F)Cc3cnccc32)CC1` [Example 25, 1-(1-ethyl-4-piperidyl)-3-(2-fluoro-6-methyl-phenyl)-4H-pyrido[4,3-d]pyrimidin-2-one] the value was 6.08; for `Cc1cccc(F)c1N1Cc2cncnc2N(C2CCN(C)CC2)C1=O` [Example 26, 3-(2-fluoro-6-methyl-phenyl)-1-(1-methyl-4-piperidyl)-4H-pyrimido[4,5-d]pyrimidin-2-one], 5.51; for `CCN1CCC(N2C(=O)N(c3c(C)cccc3F)Cc3cncnc32)CC1` [Example 27, 1-(1-ethyl-4-piperidyl)-3-(2-fluoro-6-methyl-phenyl)-4H-pyrimido[4,5-d]pyrimidin-2-one], 5.18. For `Cc1cccc(Cl)c1N1Cc2cncnc2N(C2CCN(C)CC2)C1=O` [Example 28, 3-(2-chloro-6-methyl-phenyl)-1-(1-methyl-4-piperidyl)-4H-pyrimido[4,5-d]pyrimidin-2-one] the value was 5.76.

For `CCN1CCC(N2C(=O)N(c3c(C)cccc3Cl)Cc3cncnc32)CC1` [Example 29, 3-(2-chloro-6-methyl-phenyl)-1-(1-ethyl-4-piperidyl)-4H-pyrimido[4,5-d]pyrimidin-2-one], the negative-log Ki (pKi) was 5.76. With `Cc1cccc(Cl)c1N1Cc2cnccc2N(C2CCN(C)CC2)C1=O` [Example 32, 3-(2-chloro-6-methyl-phenyl)-1-(1-methyl-4-piperidyl)-4H-pyrido[4,3-d]pyrimidin-2-one] the figure was 7.05; with `CCN1CCC(N2C(=O)N(c3c(C)cccc3Cl)Cc3cnccc32)CC1` [Example 33, 3-(2-chloro-6-methyl-phenyl)-1-(1-ethyl-4-piperidyl)-4H-pyrido[4,3-d]pyrimidin-2-one], 6.79. With `Cc1cccc(Cl)c1N1Cc2cnccc2N(C2CCNCC2)C1=O` [Example 66, 3-(2-chloro-6-methyl-phenyl)-1-(4-piperidyl)-4H-pyrido[4,3-d]pyrimidin-2-one] the figure was 7.24.
